## Yeast mating assay 1: variants of the scFv Ab-14

Antigen: PDVDLGDISGINAS, a 14-residue peptide of the SARS-CoV-2 spike HR2 region.

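The parent was found by panning a naive human phage display library on the peptide. The library (AAYL49) carries one to three amino acid substitutions per variant, with no insertions or deletions. AlphaSeq pools MATa yeast showing the antibodies with MATalpha yeast showing the peptide. The frequency of each diploid, read from paired DNA barcodes, reflects how well the two displayed proteins bind. The ratio of observed to expected reads was calibrated, replicate by replicate, on BCL2-family standards whose Kd was known from biolayer interferometry. The assay was run in three technical replicates.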

Parent scFv Ab-14: VH joined to VL by the linker GGGGSGGGGSGGGGS. Changes lie in the heavy chain CDRs alone.
VH: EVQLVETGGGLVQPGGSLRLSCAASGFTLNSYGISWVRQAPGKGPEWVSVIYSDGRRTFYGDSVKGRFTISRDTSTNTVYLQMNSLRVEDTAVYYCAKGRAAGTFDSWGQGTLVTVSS
VL: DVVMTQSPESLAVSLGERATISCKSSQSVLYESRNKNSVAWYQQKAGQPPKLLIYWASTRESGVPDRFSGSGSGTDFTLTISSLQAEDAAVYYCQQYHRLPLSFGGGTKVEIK

The parent's heavy chain CDRs are GFTLNSYGIS, VIYSDGRRTFYGDSVK, GRAAGTFDS; each variant's own CDRs replace them letter for letter.
The Kd shown is the geometric mean over detected replicates; a lower Kd is a better binder.
A pair that was not seen in any replicate is written "not detected"; this usually means weak binding, but a binder can also be missed.
As a blank, each scFv also met three strains without target: over library AAYL49, 15% of these pairings were detected, typically at 11 µM and seldom below 680 nM.
For reference, the parent read 4.4 nM as the reference entry and 13 µM (one replicate of three) as a member of this library.

CDR-H1,CDR-H2,CDR-H3,apparent Kd,detected
GFTLNAYGIS,VIYTQGRRTFYGDSVK,GRAAGTFDS,not detected,0 of 3
AFDLNSYGIS,VIYSDGRRTFYGDPVK,GRAAGTFDS,31 nM,3 of 3
GFTLPSYGIS,VIYSDGRRTFYGDSVK,GRAAGDFDS,not detected,0 of 3
GFILNSYGIS,VICSDGRRTFYGDSVK,GRAAGTFDS,9.2 µM,2 of 3
GWTLNSYGIS,VIYSDGRRTFYGDSVP,GRAACTFDS,23 µM,2 of 3
GFTWNSYGIS,VIYSDGRRTFYGDSVK,GRAISTFDS,not detected,0 of 3
GFTLNSYKIS,VIYSDGRWTFYGDSVK,GRAAGTFDS,not detected,0 of 3
GFNLNSYGIS,VWYSDGRRTFYGDSEK,GRAAGTFDS,not detected,0 of 3
GFTLNLYGIS,VIYSDGRRTFYGDSVK,GNAAVTFDS,160 nM,3 of 3
GFTLNSYGIS,VIYSDGRRGFYGRSVK,GRAIGTFDS,not detected,0 of 3
GFTLNSYGIS,VIYSDGRRTFYGDSVQ,GRAAGKFDS,110 nM,3 of 3
GFTLNSYGIS,VIYSDGSRTFYGDSVN,GRAAGTFDM,48 nM,3 of 3
GFTLNSYGIS,VIYYDGRRTFYMDSVK,GRAAVTFDS,710 nM,3 of 3
GFTLNSGGIS,VIYSDQRRTFYGNSVK,GRAAGTFDS,not detected,0 of 3
GFTLNSYGIS,YIYSDQRRTFYGDSWK,GRAAGTFDS,8.6 µM,2 of 3
GFTLNSYGIS,VIKSDMRRTFWGDSVK,GRAAGTFDS,not detected,0 of 3
GFTLNSYGIS,VIYSDGNRTFYGDPVK,GRAAGTFDN,500 nM,3 of 3
GFTFNSYGIS,VIYSDGRRTFYGDSVK,GVAAGTFDS,40 nM,1 of 3
GFTLNSYGIS,VIYSDGRRTFYGDSVK,GRKANLFDS,not detected,0 of 3
GFTLNSYGIS,VIYSDGRRTAEGDSVK,GHAAGTFDS,160 nM,2 of 3
GFTLNSYGIS,VIYSDGRRTFYGCSVK,RRARGTFDS,3.1 µM,1 of 3
GFTLNIYGIS,VIYSDGRRTFYGDSHK,GRAAGTFWS,not detected,0 of 3
GFTLNSYGIS,VIYSDGRRTFYGDSVK,GLAANTFDR,not detected,0 of 3
HFTLNSYGIS,VIYQDGRRTFYGDSVK,GIAAGTFDS,16 µM,3 of 3
GFTLNSYGIS,VIYSDGRRTFCGDSVK,WRAAGTFDS,24 µM,1 of 3
GFTLNSYGIS,VIYSDTRRTFYGDSVK,GRANGTFDS,not detected,0 of 3
GFTLNSYGIS,VIYSRGRRTFYGDLVK,GRAAGTWDS,not detected,0 of 3
GFTLGSYGIS,VIYSDGRRTFYGDVVK,GRAAGTCDS,not detected,0 of 3
GFTLNSYGRS,VIYSDGRRFFYGDSVK,ERAAGTFDS,not detected,0 of 3
GFTLNSYGIS,VIYDDGRRTYYVDSVK,GRAAGTFDS,31 µM,3 of 3
GFILNSYGIS,VIYSDGRRTFYGDSVS,GRAAGTRDS,59 nM,3 of 3
GFTLNSYGIS,PIYSDGYRTFYYDSVK,GRAAGTFDS,5.1 µM,1 of 3
GFTLNSYGIS,VIYSDGRRLFMGDSVI,GRAAGTFDS,not detected,0 of 3
GFTLNSYGIS,VMYSDGRRTFDGDSVK,HRAAGTFDS,76 µM,2 of 3
GFTPNSYGIS,VIYSDGRRSFYGDSVK,GRAAHTFDS,13 µM,1 of 3
GHTHNSYGIM,VIYSDGRRTFYGDSVK,GRAAGTFDS,1.3 mM,1 of 3
GFTLNSYWIS,VYYSDCRRTFYGDSVK,GRAAGTFDS,not detected,0 of 3
GFTLNSYKIS,VIYSDGRRTFYQDSVK,GRAAGTFDS,10 µM,2 of 3
GFTLNSYGIS,VFYSDGRRTFYGDSVK,WRAAGTFDS,13 µM,1 of 3
GFTLNSDGIS,VIYSDGRRTFYGDSVK,LRVAGTFDS,not detected,0 of 3

Continued, with the values leading:

apparent Kd,detected,CDR-H1,CDR-H2,CDR-H3
7.3 µM,1 of 3,GFTLNSYGIS,VIYSDGRWTFYGDSVK,GRYVGTFDS
not detected,0 of 3,GFTLNSYGIS,VGYSDGYRTFYPDSVK,GRAAGTFDS
not detected,0 of 3,DFTLNSYGIS,VIYSDGRRTTYGDSVK,GEAAGTFDS
6.7 µM,2 of 3,GFTLNSYGIS,VSYSDGRLTFMGDSVK,GRAAGTFDS
10 µM,1 of 3,GFTLNSYGIS,PIYSDGRRTFYGDNVK,GRAAGTFDS
not detected,0 of 3,GFTLNSYVIS,VIYSDGRRTFYGDSVK,IRAAVTFDS
not detected,0 of 3,GFALNSYGIS,VIYSDGRRSFYGDSVK,GRAAGTFDC
29 µM,3 of 3,GFTLNHYGIS,VIYLDGRRTFYGDSVK,GRAAGDFDS
9.9 µM,1 of 3,GFYLNSYGIS,VIYSDGRRTFYGISVK,GRAYGTFDS
2.5 µM,1 of 3,NFTLNSYGIS,VIYSDGRRTFYVDMVK,GRAAGTFDS
11 µM,2 of 3,GFTLNSYGIW,VIYSLGRRTFYGMSVK,GRAAGTFDS
17 µM,2 of 3,GFTLNSYGIS,VICSDGLRTFYGDSVK,GRAAGTFDI
not detected,0 of 3,EFTLNSYGIS,VIYSDGRRTFFGDSVK,GRAAPTFDS
not detected,0 of 3,GFTLNSFGGS,VIYSDGRRTFYGDSDK,GRAAGTFDS
not detected,0 of 3,GPRLNSYGIS,VIYSDGRRTFYGDSTK,GRAAGTFDS
1.1 mM,1 of 3,GFTLRSYGIS,VCYSLGRRTFYGDSVK,GRAAGTFDS
not detected,0 of 3,GFTLNIYGIS,VIYLQGRRTFYGDSVK,GRAAGTFDS
35 µM,2 of 3,TFTLNSYGFS,VIYSDGRRTFYGDSVK,GRAHGTFDS
not detected,0 of 3,GFTQNSYGIS,VIYSMGRRTIYGDSVK,GRAAGTFDS
310 nM,1 of 3,GFTLNWEGIS,VIYSQGRRTFYGDSVK,GRAAGTFDS
1.8 µM,1 of 3,GFTLFSYGIS,VKYSDGRRTFYGDSVK,GRAAKTFDS
not detected,0 of 3,GFTLNSYVIT,VIYSDCRRTFYGDSVK,GRAAGTFDS
not detected,0 of 3,GFTLNSYGIM,VIYSDGRCTVYGDSVK,GRAAGTFDS
53 µM,2 of 3,GFTLNSYGNS,VQYSDGRRTFYGDSVK,GRAKGTFDS
30 µM,3 of 3,GFTLNSSGIN,QIYSDGRRTFYGDSVK,GRAAGTFDS
not detected,0 of 3,GNTLNNYGIS,VIYSDGRRTFYGDSVK,GRAFGTFDS
not detected,0 of 3,GFTLNSYGIS,VIYQDGRRTFYGDSVK,GRTDGTFDS
not detected,0 of 3,GFTLNSYGWS,VIYSDGRRTFYGFSVK,GRAAGTFDS
38 µM,1 of 3,GNTKNSQGIS,VIYSDGRRTFYGDSVK,GRAAGTFDS
not detected,0 of 3,GFTLNSYGIS,VIYSDGRRTFYVDSVK,NRAAGTFDE
not detected,0 of 3,GFILNSYGII,VIYSDGRRTFYGDSVK,GRAAGGFDS
62 µM,2 of 3,GFFLNSYGIS,PIYSDGRRVFYGDSVK,GRAAGTFDS
not detected,0 of 3,GFTLNSYEIS,VIYSDGRRTFAGDSVK,KRAAGTFDS
7.1 µM,3 of 3,GFTLNSYGIS,VIYSWGRRTFYGFSVK,GSAAGTFDS
13 µM,2 of 3,GFTLNSYGYS,VIYSDDRRTFYGPSVK,GRAAGTFDS
82 nM,3 of 3,GFTLNSYGIS,VIFSDGRRTFYGDSVK,GRAAWTFWS
11 µM,1 of 3,GFTLNSYGIS,VIYCDGRQTFYGDSVK,GRAAPTFDS
not detected,0 of 3,GPTLNSYGIS,VIYSDGRRTFYGDSVK,GRAAISFDS
53 µM,1 of 3,GFTANSYGIS,VIYSDGRRHFYGDSVK,GRANGTFDS
190 nM,2 of 3,GFTLNCYGIS,VIYSDGRRTVYGDSVK,GRAAGTFDS

Repeated from above, the 8 best binders with a signal in all replicates:

{"CDR-H1": "AFDLNSYGIS", "CDR-H2": "VIYSDGRRTFYGDPVK", "CDR-H3": "GRAAGTFDS", "apparent Kd": "31 nM", "detected": "3 of 3"}
{"CDR-H1": "GFTLNSYGIS", "CDR-H2": "VIYSDGSRTFYGDSVN", "CDR-H3": "GRAAGTFDM", "apparent Kd": "48 nM", "detected": "3 of 3"}
{"CDR-H1": "GFILNSYGIS", "CDR-H2": "VIYSDGRRTFYGDSVS", "CDR-H3": "GRAAGTRDS", "apparent Kd": "59 nM", "detected": "3 of 3"}
{"CDR-H1": "GFTLNSYGIS", "CDR-H2": "VIFSDGRRTFYGDSVK", "CDR-H3": "GRAAWTFWS", "apparent Kd": "82 nM", "detected": "3 of 3"}
{"CDR-H1": "GFTLNSYGIS", "CDR-H2": "VIYSDGRRTFYGDSVQ", "CDR-H3": "GRAAGKFDS", "apparent Kd": "110 nM", "detected": "3 of 3"}
{"CDR-H1": "GFTLNLYGIS", "CDR-H2": "VIYSDGRRTFYGDSVK", "CDR-H3": "GNAAVTFDS", "apparent Kd": "160 nM", "detected": "3 of 3"}
{"CDR-H1": "GFTLNSYGIS", "CDR-H2": "VIYSDGNRTFYGDPVK", "CDR-H3": "GRAAGTFDN", "apparent Kd": "500 nM", "detected": "3 of 3"}
{"CDR-H1": "GFTLNSYGIS", "CDR-H2": "VIYYDGRRTFYMDSVK", "CDR-H3": "GRAAVTFDS", "apparent Kd": "710 nM", "detected": "3 of 3"}

Data: MIT Lincoln Laboratory AlphaSeq set, Engelhart et al. 2022, doi:10.1038/s41597-022-01779-4, as distributed in FLAb.